Consider one compound from paper PMC12259270, “Sensory neuron–expressed FGF13 controls nociceptive signaling in diabetic neuropathy models” (The Journal of Clinical Investigation, 2025).

Protein sequences, listed by entry. Tags and fused reporters are not part of them. Residues count along the entry.
UniProt Q15858, 1-1977 isoform 3: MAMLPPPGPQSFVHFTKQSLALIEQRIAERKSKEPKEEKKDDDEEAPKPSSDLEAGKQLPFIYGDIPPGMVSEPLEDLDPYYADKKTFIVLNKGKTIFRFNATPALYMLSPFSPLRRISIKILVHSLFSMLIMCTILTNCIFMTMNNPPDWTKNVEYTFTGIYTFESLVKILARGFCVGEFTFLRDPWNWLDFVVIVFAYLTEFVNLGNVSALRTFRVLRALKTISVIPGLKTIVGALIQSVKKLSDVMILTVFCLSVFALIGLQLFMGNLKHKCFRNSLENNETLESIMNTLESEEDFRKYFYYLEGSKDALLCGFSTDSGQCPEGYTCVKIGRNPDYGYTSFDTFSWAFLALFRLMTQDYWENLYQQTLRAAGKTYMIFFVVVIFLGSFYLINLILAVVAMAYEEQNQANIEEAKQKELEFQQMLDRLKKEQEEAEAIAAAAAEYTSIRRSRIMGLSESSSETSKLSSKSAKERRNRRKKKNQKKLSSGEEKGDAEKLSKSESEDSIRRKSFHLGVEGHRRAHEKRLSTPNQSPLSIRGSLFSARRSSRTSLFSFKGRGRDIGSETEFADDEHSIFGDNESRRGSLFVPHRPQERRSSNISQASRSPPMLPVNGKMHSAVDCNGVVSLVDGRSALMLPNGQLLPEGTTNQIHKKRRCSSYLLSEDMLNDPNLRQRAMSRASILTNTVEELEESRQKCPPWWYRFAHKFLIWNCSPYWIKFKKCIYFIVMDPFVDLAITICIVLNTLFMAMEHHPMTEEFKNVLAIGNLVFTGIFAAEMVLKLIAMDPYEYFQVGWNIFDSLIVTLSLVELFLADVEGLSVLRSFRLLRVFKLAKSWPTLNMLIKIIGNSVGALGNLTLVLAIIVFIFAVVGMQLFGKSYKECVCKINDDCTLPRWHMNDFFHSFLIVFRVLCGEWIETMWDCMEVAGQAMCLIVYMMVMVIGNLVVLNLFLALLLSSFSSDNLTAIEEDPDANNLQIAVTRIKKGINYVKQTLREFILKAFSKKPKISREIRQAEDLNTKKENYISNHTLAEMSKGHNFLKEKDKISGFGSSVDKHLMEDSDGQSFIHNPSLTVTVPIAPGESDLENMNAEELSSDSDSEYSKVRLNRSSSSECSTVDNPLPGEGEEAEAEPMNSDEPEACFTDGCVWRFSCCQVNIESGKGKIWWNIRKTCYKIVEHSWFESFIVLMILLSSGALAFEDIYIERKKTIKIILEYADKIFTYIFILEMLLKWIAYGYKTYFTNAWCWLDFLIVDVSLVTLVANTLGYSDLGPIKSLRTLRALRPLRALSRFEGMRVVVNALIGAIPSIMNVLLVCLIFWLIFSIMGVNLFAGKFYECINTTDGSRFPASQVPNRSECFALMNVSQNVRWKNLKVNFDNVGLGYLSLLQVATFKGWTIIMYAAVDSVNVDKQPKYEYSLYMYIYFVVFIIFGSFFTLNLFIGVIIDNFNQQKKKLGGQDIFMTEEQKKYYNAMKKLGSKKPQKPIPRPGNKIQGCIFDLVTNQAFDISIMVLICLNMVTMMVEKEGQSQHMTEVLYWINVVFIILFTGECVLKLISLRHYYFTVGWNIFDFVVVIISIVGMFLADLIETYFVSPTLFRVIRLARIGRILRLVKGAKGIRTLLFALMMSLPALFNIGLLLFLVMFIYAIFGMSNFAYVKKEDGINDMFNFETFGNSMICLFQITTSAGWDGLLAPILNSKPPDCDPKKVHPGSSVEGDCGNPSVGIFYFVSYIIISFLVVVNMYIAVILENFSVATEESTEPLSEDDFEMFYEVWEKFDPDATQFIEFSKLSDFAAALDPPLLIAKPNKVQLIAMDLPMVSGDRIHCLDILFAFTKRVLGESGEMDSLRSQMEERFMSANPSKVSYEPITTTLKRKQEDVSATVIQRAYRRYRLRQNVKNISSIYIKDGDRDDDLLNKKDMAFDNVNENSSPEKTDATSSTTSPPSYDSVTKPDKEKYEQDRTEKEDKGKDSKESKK
UniProt Q92913, 1-192 partner limits assumed: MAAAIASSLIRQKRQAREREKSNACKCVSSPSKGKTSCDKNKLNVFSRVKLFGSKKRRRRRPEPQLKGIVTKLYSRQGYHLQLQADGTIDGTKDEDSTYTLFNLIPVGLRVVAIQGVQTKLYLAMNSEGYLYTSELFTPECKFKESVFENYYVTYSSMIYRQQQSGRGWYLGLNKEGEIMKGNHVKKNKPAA

This test has as its target human Nav1.7 (Homo sapiens, UniProt Q15858). Briefly: Whole-cell patch-clamp, HEK293 cells stably expressing human Nav1.7 with GFP or FGF13-GFP. It counts as cell-based. The conditions noted are these: Fig 1F; FGF13-GFP; Log (conc(M) -4); FGF13R110A.

With `COC(=O)[C@@H](NC(=O)[C@H](CCC(=O)OC(C)(C)C)NC(=O)[C@H](CC(C)C)NC(=O)[C@@H]1CCCN1C(=O)OCc1ccccc1)C(C)C`, the “peak INa density, dose response, single cells” value was -16.0106 pA/pF.
